SMILES strings stand for the structures.

This note sets out measurements from article PMC6882446, “Further validation of strecker-type α-aminonitriles as a new class of potent human carbonic anhydrase II inhibitors: hit expansion within the public domain using differential scanning fluorimetry leads to chemotype refinement” (Journal of Enzyme Inhibition and Medicinal Chemistry, 2019).

In the test the target is hCA II (Homo sapiens, UniProt P00918). Put plainly: stopped-flow CO2 hydration assay. Type of test: biochemical. The conditions noted are these: CO2 […]; […] Hepes pH […]; […] Na2SO4; room temperature; […] min pre-incubation. From the text:
stopped-flow CO2 hydration assay on hCA II

Broadly, the Ki is a dissociation constant, usually derived from enzyme kinetics or from competition with a known ligand. A low value points to a stronger hold on the target. The molecule `COCCOc1ncccc1C(=O)N1CCN(C(C#N)C(C)C)CC1` (stereo not shown) registered a Ki of 9.1 µM.
